Assays:
isolated rat renal cells = assay: Radiopeptide uptake in freshly isolated rat renal cells; settings: mean ± S.D., n = 4
LLC-PK1 cells = assay: Cellular uptake in LLC-PK1 cells; format: in vitro ADME, porcine; settings: mean ± S.D., n = 4
Method: The cellular accumulation of two somatostatin receptor-specific analogs ([^111In]In -DOTA-TATE and [^111In]In -DOTA-NOC) was compared in two renal cellular models, OK cells and LLC-PK1 cells.
Table 1 documents this finding for LLC-PK1 cells that grew for 6 h and for 3 days.

## [^99mTc]Tc-albumin: radiolabeled albumin, marker of proximal tubule endocytic activity, substrate of the megalin endocytic receptor [reference compound]
Isolated rat renal cells
  Cellular uptake, rat renal cells: 2.188 ± 0.411 %D/10^6 cells/30 min
LLC-PK1 cells; LLC-PK1 cells grown for 6 h
  Cellular uptake, young LLC-PK1 cells: 0.036 ± 0.006 %D/10^6 cells/30 min
LLC-PK1 cells; LLC-PK1 cells grown for 3 days
  Cellular uptake, older LLC-PK1 cells: 0.083 ± 0.015 ^★ %D/10^6 cells/30 min

— PMC10223737, “Validation of Freshly Isolated Rat Renal Cells as a Tool for Preclinical Assessment of Radiolabeled Receptor-Specific Peptide Uptake in the Kidney” (Pharmaceuticals, 2023)
